Legend:
[1] = system: K^+ transport, P3 membrane fractions from whole brains of Swiss mice; test: K^+ transport (^86 Rb uptake) in P3 membrane fractions; assay type: biochemical
[2] = target: T1, Acetylcholinesterase (Electrophorus electricus, UniProt O42275); test: Acetylcholinesterase activity, acetylthiocholine substrate, colorimetric (Ellman); assay type: biochemical, electric eel
T1 construct: prepared from the electric organ of the electric eel; from tissue; host or cells: electric organ of the electric eel

The chains behind the UniProt entries cited, without tags or fusion partners. Residues count along the entry.
UniProt O42275, 24-633: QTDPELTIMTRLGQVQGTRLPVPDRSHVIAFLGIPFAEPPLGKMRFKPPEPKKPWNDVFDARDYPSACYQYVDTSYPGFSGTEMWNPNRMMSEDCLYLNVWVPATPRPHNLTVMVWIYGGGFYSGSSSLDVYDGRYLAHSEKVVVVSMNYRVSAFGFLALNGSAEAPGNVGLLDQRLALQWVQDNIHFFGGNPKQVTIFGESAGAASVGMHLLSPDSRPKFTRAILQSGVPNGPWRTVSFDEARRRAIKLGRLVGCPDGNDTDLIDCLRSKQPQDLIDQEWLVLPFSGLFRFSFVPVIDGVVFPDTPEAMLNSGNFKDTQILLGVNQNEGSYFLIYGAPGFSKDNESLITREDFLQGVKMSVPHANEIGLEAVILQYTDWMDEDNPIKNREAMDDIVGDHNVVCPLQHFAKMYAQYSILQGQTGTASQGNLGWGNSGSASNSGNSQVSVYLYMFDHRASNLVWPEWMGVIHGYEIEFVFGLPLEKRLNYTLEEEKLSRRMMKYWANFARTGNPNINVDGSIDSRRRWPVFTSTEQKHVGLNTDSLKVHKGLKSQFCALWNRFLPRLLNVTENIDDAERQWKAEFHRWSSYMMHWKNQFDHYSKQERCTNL

Structure (SMILES): Nc1c2ccccc2nc2ccccc12 [9-aminoacridine]
- K^+ Transport Relative Potency ([1]; relative to amodiaquin): 0.57
- concentration inhibiting K^+ transport (selection criterion) ([1]; submillimolar concentrations): ≤ 10^-3 M
- cholinesterase inhibitory potency compared with amodiaquin (in words) [2]: less than one-tenth
- concentration inhibiting acetylcholinesterase (selection criterion) ([2]; micromolar or lower concentrations): ≤ 10^6 M
